# Reference: patent US5466700A (priority 1993, dated 1995)
# Read-outs that look alike come from different tables or passages of the source.
# Columns and labels:
# [1] = system: EEG amplitude in anesthetized dogs; assay: EEG amplitude in anesthetized dogs (Example 1, Table 1); details: 70 min; PT-Z given after fentanyl infusion; mean ± SEM; * differs from time 0
# [2] = system: seizure activity on the EEG; details: dogs, compared with fentanyl seizures (increase in EEG amplitude and frequency)
smiles,measurement,setting,value
C1CCc2nnnn2CC1 [pentylenetetrazole],"EEG amplitude, left hemisphere (occipital frontal leads)",[1],31.8 ± 4.6 μV
same,"EEG amplitude, right hemisphere (occipital frontal leads)",[1],34.4 ± 5.7 μV
same,EEG effect of positive control,[2],produced similar effects on the EEG
same,EEG effect of positive control,[2]; listed as pentyienetetrazole,"high voltage, high frequency EEG pattern"
